Source: patent publication US10350200B2, “Aqueous suspensions of oximes for autoinjectors” (dated 2019)

Assays:
[1] = white crystalline powder; Canadian Patent Application No. 689384; cited from earlier work
[2] = Steam sterilization stability of aqueous suspension; settings: 780 mg/g aqueous suspension; 121° C./15 psi, 15 min
[3] = Density of 2-PAM Cl/water solution at maximum solubility; settings: 2-PAM Cl at the identified particle size distribution
[4] = Solubility of milled 2-PAM Cl in water at ambient temperature

C[n+]1ccccc1/C=N/O
solubility in water [1]: one gram in less than one cc
chemical stability after steam sterilization, level of 2-PAM Cl [2]: 97 % of pre-sterilization level
density of 2-PAM Cl/water solution at maximum solubility [3]: about 1.15 g/cc
amount of 2-PAM Cl as solid in suspension when 780 mg placed in 220 mg of water ([4]; 780 mg 2-PAM Cl in 220 mg water): 660 mg
amount of 2-PAM Cl that dissolved when 780 mg placed in 220 mg of water ([4]; 780 mg 2-PAM Cl in 220 mg water, calculated from 352 mg/648 mg): 120 mg
amount of 2-PAM Cl that would dissolve in 648 mg of water ([4]; ambient temperature, milled particle size distribution 10-100 μm, in 648 mg of water): 352 mg
amount of 2-PAM Cl that will dissolve in 1 gram of water ([4]; per 1000 mg H2O, calculated from 120 mg/220 mg): 545 mg
